Results from patent US10829478B2, “5-[3-[piperazin-1-yl]-3-oxo-propyl]-imidazolidine-2,4-dione derivatives as ADAMTS 4 and 5 inhibitors for treating e.g. osteoarthritis” (Galapagos NV, priority 2016, dated 2020).

Chains of the proteins cited; added tags and fusions are not shown. Residues count along the entry.
UniProt P78536, 215-671: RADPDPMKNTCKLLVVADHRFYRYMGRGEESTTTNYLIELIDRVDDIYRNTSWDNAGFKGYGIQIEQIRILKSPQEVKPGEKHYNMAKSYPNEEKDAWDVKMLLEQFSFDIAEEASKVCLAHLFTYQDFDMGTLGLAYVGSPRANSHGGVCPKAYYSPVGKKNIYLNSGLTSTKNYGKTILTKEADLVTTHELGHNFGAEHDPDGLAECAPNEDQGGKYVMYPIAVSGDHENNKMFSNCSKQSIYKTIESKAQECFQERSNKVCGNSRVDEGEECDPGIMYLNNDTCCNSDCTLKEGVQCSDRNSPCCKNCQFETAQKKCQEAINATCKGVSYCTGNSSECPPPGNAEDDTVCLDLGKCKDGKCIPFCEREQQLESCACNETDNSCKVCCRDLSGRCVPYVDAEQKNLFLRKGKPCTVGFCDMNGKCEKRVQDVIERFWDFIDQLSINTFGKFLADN
UniProt Q9UNA0, 262-930: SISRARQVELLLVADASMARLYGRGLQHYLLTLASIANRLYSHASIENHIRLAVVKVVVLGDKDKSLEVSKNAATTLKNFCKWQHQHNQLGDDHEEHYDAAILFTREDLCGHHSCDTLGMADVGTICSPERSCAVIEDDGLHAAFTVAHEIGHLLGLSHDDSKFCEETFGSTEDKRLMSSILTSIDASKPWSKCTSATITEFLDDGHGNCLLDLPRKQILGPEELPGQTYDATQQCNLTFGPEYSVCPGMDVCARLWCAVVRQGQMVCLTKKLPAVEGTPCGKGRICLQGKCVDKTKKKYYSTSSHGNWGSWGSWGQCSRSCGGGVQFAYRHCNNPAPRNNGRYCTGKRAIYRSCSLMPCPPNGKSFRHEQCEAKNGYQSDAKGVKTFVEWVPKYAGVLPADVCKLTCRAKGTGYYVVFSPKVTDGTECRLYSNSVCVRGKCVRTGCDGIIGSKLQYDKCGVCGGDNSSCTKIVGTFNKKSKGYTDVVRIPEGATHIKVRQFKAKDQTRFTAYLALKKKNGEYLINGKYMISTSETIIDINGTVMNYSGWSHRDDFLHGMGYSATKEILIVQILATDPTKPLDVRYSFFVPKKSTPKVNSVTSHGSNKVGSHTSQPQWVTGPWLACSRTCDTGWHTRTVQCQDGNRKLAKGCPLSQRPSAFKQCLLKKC
UniProt Q6TY19, entry or part of it: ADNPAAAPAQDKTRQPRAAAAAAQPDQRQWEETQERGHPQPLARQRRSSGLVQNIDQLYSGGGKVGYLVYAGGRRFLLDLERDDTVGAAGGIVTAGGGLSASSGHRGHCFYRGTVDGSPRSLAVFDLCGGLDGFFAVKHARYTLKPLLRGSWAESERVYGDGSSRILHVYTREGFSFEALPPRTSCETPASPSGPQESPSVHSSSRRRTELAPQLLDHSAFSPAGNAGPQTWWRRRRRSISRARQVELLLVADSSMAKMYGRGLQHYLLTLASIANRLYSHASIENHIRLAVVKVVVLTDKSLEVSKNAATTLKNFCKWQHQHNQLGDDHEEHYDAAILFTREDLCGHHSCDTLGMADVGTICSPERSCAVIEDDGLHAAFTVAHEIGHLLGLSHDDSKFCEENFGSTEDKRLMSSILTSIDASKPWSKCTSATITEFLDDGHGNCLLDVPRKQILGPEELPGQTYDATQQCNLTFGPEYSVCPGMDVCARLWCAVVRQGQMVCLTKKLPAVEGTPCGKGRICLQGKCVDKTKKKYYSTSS

What was measured:
human TACE = human TACE (Homo sapiens (Human), UniProt P78536); assay: biochemical
human ADAMTS-5 = human ADAMTS-5 (Homo sapiens (Human), UniProt Q9UNA0); assay: hADAMTS-5 TBIS-1 cleavage assay, Protocol 3; type: biochemical; settings: 90 min at 37° C., read-out: hADAMTS-5 potency IC50
human MMP14 = human MMP14 (Homo sapiens (Human), UniProt P50281); assay: hMMP14 assay (390 MMP FRET Substrate I); type: biochemical; settings: human MMP14 (Biomol), read-out: hMMP-14 potency IC50
rnADAMTS-5 (1-564-6H) = rnADAMTS-5 (1-564-6H) (Rattus norvegicus (Rat), UniProt Q6TY19); assay: Rat ADAMTS-5 TBIS-1 cleavage assay; type: biochemical; settings: 120 min at 37° C.; read-out: Rat ADAMTS-5 potency IC50

Row | IC50 (human TACE) [nM] | IC50 (human ADAMTS-5) [nM] | IC50 (human MMP14) [nM] | IC50 (rnADAMTS-5 (1-564-6H)) [nM] | Structure (SMILES)
1 | > 100 | 25 to 50 | – | – | CCc1cc(N2CCN(C(=O)[C@@H](C)C[C@@]3(COC)NC(=O)NC3=O)C[C@@H]2C)ccc1Cl (stereo in doubt) [Cpd 124, 5-[3-[(3S)-4-(4-chloro-3-ethyl-phenyl)-3-methyl-piperazin-1-yl]-2-methyl-3-oxo-propyl]-5-(methoxymethyl)imidazolidine-2,4-dione]
2 | – | > 100 | – | – | CCc1cc(N2CCN(C(=O)CCC3(CC(=O)O)NC(=O)NC3=O)C[C@@H]2C)ccc1Cl (stereo partly drawn) [Cpd 98, 2-[4-[3-[(3 S)-4-(4-chloro-3-ethyl-phenyl)-3-methyl-piperazin-1-yl]-3-oxo-propyl]-2,5-dioxo-imidazolidin-4-yl]acetic acid]
3 | > 100 | > 100 | > 100 | – | CCc1cc(N2CCN(C(=O)CCC3(CCC(=O)O)NC(=O)NC3=O)C[C@@H]2C)ccc1Cl (stereo partly drawn) [Cpd 116, 3-[4-[3-[(3 S)-4-(4-chloro-3-ethyl-phenyl)-3-methyl-piperazin-1-yl]-3-oxo-propyl]-2,5-dioxo-imidazolidin-4-yl]propanoic acid]
4 | > 100 | > 100 | > 100 | > 100 | CC(C)c1cc(N2CCN(C(=O)CC[C@@]3(C)NC(=O)NC3=O)C[C@@H]2C)ccc1Cl [Cpd 85, (5R)-5-[3-[(3 S)-4-(4-chloro-3-isopropyl-phenyl)-3-methyl-piperazin-1-yl]-3-oxo-propyl]-5-methyl-imidazolidine-2,4-dione]
5 | – | > 100 | > 100 | – | CCc1cc(N2CCN(C(=O)CCC3(CCC(=O)OC(C)(C)C)NC(=O)NC3=O)C[C@@H]2C)ccc1Cl (stereo partly drawn) [Cpd 114, tert-butyl 3-[4-[3-[(3S)-4-(4-chloro-3-ethyl-phenyl)-3-methyl-piperazin-1-yl]-3-oxo-propyl]-2,5-dioxo-imidazolidin-4-yl]propanoate]
